Experimental data reported in article PMC7734623 (Antiviral chemistry & chemotherapy, 2012).

Tests used:
[1] = system: primary human peripheral blood mononuclear cells; test: Cytotoxicity on PBMCs; settings: PBMC
[2] = Hydrolytic stability of DMSO stock solution under freezing–; settings: hygroscopic DMSO stock solution

Substance: [1,4-Bis(4-hydroxyphenyl)butane-1,4-dione – 1,4-bis(4-methoxyphenyl)butane-1,4-dione (7) – (2S,2′S)-2,2′-{[(tricyclo[3.3.1.1^3,7]dec-1-ylamino)methanediyl] bis(pteroylimino)}dipentanedioic acid (0.2:1:1)]×3 H2O×0.4 acetone [Compound 9]
- CC50 ([1]; experiment 1): 44.9 µM
- CC50 ([1]; experiment 2): 44.9 µM
- hydrolytic stability (in words) [2]: hydrolytic instability
